Molecular target: central benzodiazepine receptor (CBR)

CC(=O)N(Cc1ccccc1OCF)c1cnccc1Oc1ccccc1
Ki: > 100 µM
